Measurements reported in patent US4007282A, “Lowering lipid and sugar levels in the blood with a bis(4-hydroxyphenyl)alkanoic acid or ester thereof” (Hoechst Aktiengesellschaft, priority 1972, dated 1977).

Experiment: in vivo
Conditions: mouse, po

With `CC(CCC(=O)O)(c1ccc(O)cc1)c1ccc(O)cc1` [Example 19, 4,4-Bis(4'-hydroxy-phenyl)pentanoic acid] the LD50 was 4000 mg/kg.
